Experimental findings from BindingDB's records for doi:10.1038/nbt1059 (Plexxikon, 2005) are described below.

What is called IC50 is the concentration that gives 50% inhibition. A low value points to inhibition by little substance.

The target in the assay is cAMP-specific 3',5'-cyclic phosphodiesterase 4D [372-376,381-715,S375G,I381V,S383G,G384S,V385H,K386M) (Homo sapiens, UniProt Q08499, S375G/I381V/S383G/G384S/V385H/K386M). As to the kind of experiment: Phosphodiesterase (PDE) Inhibition Assay. The protocol: Phosphodiesterase activities were assayed in the presence of inhibitor compounds. Measurement takes advantage of the selective binding of 5-AMP or 5-GMP (and not cAMP or cGMP) to yttrium silicate beads with embedded scintillant. Hydrolysis is quantified by reading in a scintillation counter (Trilux, Wallac). The cAMP and cGMP concentrations used were far below the Km of PDE.

In the case of `CCOC(=O)c1c(C)nn(-c2ccccc2)c1C` [ethyl 3,5-dimethyl-1-phenyl-1H-pyrazole-4-carboxylate], the IC50 was 270 nM.
